This assay concerns the target Human recombinant PDE10A2 (Homo sapiens (Human), UniProt Q9Y233). The assay can be described thus: In vitro hPDE10a: human recombinant PDE10A2 scintillation proximity assay, IC50. It is filed as biochemical. Conditions: human recombinant PDE10A2, SPA, 60 nM cAMP; read-out: hPDE10a2 IC50. The procedure: In Vitro hPDE10a […] Cells were harvested and the phosphodiesterase protein was purified by metal chelate chromatography on Ni-sepharose 6FF. The affinity of the compounds of Formula (I) for phophodiesterases (PDE) was measured by a scintillation proximity assay (SPA). PDE Yttrium Silicate SPA beads allow PDE activity to be measured by direct binding of the primary phosphate groups of non-cyclic AMP or GMP to the beads via a complex iron chelation mechanism. The amount of bound tritiated product ([^3H]-AMP) is measured by liquid scintillation counting. The compounds were dissolved and diluted in 100% DMSO in polystyrene plates to a concentration of 100-fold the final concentration in the assay. […] After incubation, the reaction was stopped with 20 μL of stop solution, consisting of PDE SPA beads (17.8 mg beads/mL in 18 mM zinc sulphate). […] To measure the low control, no enzyme was added to the reaction mixture. Data were calculated as the percentage of inhibition of total activity measured in the absence of test compound (% control). […] For compounds tested more than once, the data points were aggregated.
A general note: Scintillation proximity formats need no separation of bound from free tracer.

Chains of the proteins cited; added tags and fusions are not shown. Residues count along the entry.
UniProt Q9Y233, 267-1055: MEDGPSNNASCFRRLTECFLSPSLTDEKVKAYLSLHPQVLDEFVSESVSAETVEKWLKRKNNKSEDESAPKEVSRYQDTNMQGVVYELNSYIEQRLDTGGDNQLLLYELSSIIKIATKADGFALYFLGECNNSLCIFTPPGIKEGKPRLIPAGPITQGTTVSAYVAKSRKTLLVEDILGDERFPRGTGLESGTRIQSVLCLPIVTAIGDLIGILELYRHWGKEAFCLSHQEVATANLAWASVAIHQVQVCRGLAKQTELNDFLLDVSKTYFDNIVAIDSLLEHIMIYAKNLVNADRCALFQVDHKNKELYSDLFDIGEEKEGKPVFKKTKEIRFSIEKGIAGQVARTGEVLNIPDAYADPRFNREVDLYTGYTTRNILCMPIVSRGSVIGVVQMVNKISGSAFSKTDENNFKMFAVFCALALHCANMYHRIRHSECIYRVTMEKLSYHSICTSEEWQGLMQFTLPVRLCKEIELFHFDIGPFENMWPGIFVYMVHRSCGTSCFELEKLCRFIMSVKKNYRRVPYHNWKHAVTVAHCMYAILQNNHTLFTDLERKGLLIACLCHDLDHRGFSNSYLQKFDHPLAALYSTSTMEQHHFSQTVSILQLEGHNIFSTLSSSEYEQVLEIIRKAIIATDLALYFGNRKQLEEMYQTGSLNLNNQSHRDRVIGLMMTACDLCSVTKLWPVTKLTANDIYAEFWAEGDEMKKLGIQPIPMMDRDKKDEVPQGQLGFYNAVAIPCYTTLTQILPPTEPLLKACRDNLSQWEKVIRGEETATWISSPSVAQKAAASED

For `O=C(O)C1(c2ccc(-c3c([C@H]4C[C@H](c5ccc6ccccc6n5)C4)nc4c(N5CCOCC5)ccnn34)cc2)CC1` [Cpd 175, 1-{4-[8-Morpholin-4-yl-2-(trans-3-quinolin-2-ylcyclobutyl)imidazo[1,2-b]pyridazin-3-yl]phenyl}cyclopropanecarboxylic acid], the concentration for half-maximal inhibition (IC50) (usually the midpoint of a concentration-inhibition curve) was 2 nM.

Source of the values: patent publication US9193736B2, “PDE 10a inhibitors for the treatment of type II diabetes” (Janssen Pharmaceutica, NV, priority 2013, dated 2015).
